## scFv variants of Ab-91 (heavy chain) against a SARS-CoV-2 spike peptide

Source: Engelhart et al. 2022 (doi:10.1038/s41597-022-01779-4), MIT Lincoln Laboratory and A-Alpha Bio; data file from the FLAb repository.

Antigen: PDVDLGDISGINAS, a 14-residue peptide of the SARS-CoV-2 spike HR2 region.

The variants keep the light chain, the linker and the frameworks of Ab-91 (scFv order VL, a (GGGGS)3 linker, VH).
VL: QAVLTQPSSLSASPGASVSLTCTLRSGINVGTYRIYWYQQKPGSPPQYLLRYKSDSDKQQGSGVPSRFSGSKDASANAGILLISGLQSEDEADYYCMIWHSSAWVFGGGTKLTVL
VH: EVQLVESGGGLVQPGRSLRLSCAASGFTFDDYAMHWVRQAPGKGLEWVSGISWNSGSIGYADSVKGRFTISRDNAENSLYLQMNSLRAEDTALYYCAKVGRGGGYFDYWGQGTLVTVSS

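Phage display of a naive human antibody library on the peptide gave the parent. Library AAYL51 holds single substitutions and randomly drawn double and triple substitutions in the CDRs. AlphaSeq pools MATa yeast showing the antibodies with MATalpha yeast showing the peptide. The frequency of each diploid, read from paired DNA barcodes, reflects how well the two displayed proteins bind. The ratio of observed to expected reads was calibrated, replicate by replicate, on BCL2-family standards whose Kd was known from biolayer interferometry. There are three technical replicates.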

Changes read parent residue, position, new residue, counted from the first residue of the VH shown.
Only single mutants are listed, position by position.
Values are log10 of the apparent Kd in nM; lower means stronger binding.
The mean shown is taken over the replicates in which the pair was detected.
"nd" marks a missing value. The strain was present, yet no cells mated with the target were sequenced in any replicate, which points to weak or no binding.
Nonspecific signal, from three strains lacking the peptide, appeared in 21% of pairings of library AAYL51, centred on 4.54 (5% of these signals below 3.26); values are not corrected for it.
For reference, the parent read 1.86 as the reference entry and 0.88 as a member of this library.

Variant I58W showed 2.71 (3 of 3 replicates).
Variant I58S showed 1.17 (3 of 3 replicates).
Variant I58P showed 4.21 (1 of 3 replicates).
Variant I58M showed nd (0 of 3 replicates).
Variant I58H showed 4.42 (1 of 3 replicates).
Variant I58Q showed 1.50 (3 of 3 replicates).
Variant I58F showed 3.80 (1 of 3 replicates).
Variant G59V showed nd (0 of 3 replicates).
Variant G59R showed nd (0 of 3 replicates).
Variant G59Q showed nd (0 of 3 replicates).
Variant G59D showed nd (0 of 3 replicates).
Variant G59P showed nd (0 of 3 replicates).
Variant G59Y showed nd (0 of 3 replicates).
Variant G59K showed 4.79 (3 of 3 replicates).
Variant G59H showed nd (0 of 3 replicates).
Variant G59F showed 3.99 (1 of 3 replicates).
Variant G59L showed nd (0 of 3 replicates).
Variant G59A showed 4.89 (3 of 3 replicates).
Variant G59C showed 4.56 (3 of 3 replicates).
Variant G59I showed 4.46 (2 of 3 replicates).
Variant Y60L showed nd (0 of 3 replicates).
Variant Y60I showed 4.01 (1 of 3 replicates).
Variant Y60M showed 2.52 (3 of 3 replicates).
Variant Y60G showed 4.16 (1 of 3 replicates).
Variant Y60T showed 3.44 (2 of 3 replicates).
Variant Y60P showed 4.72 (3 of 3 replicates).
Variant Y60D showed 3.15 (2 of 3 replicates).
Variant Y60C showed nd (0 of 3 replicates).
Variant Y60V showed 1.69 (3 of 3 replicates).
Variant Y60E showed 2.87 (3 of 3 replicates).
Variant Y60H showed nd (0 of 3 replicates).
Variant Y60R showed 4.72 (1 of 3 replicates).
Variant Y60S showed 3.45 (3 of 3 replicates).
Variant Y60Q showed 4.62 (1 of 3 replicates).
Variant Y60W showed 4.35 (3 of 3 replicates).

The first 2 variants above that were never detected:

{"changes": "I58M", "mean log10 Kd (nM)": "nd", "replicates with signal": "0/3"}
{"changes": "G59V", "mean log10 Kd (nM)": "nd", "replicates with signal": "0/3"}